Experimental findings from ChEMBL document CHEMBL4118139, “Novel naphthyloxy derivatives - Potent histamine H3 receptor ligands. Synthesis and pharmacological evaluation” (Bioorg Med Chem, 2018) are described below.

By UniProt entry, the sequences of proteins in these tests, tags left out.
UniProt P31389, whole entry: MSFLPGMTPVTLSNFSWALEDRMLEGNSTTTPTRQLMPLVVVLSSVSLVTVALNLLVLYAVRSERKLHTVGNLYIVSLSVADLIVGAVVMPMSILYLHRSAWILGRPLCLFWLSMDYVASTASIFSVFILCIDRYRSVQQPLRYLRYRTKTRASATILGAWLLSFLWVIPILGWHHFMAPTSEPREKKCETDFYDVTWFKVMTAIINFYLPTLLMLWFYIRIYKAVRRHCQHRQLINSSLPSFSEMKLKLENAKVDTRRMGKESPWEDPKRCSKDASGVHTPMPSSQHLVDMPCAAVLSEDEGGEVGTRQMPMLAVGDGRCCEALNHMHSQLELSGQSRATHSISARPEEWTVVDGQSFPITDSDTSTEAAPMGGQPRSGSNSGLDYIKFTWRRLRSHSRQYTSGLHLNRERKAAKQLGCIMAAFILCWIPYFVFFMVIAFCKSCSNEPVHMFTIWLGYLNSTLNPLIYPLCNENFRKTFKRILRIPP

For assay [1], the target named is Histamine H1 receptor (Cavia porcellus) (UniProt P31389). Nature of the assay: Antagonist activity at histamine H1 receptor in guinea-pig ileum assessed as inhibition of histamine-induced contractions after 15 mins. In kind it is functional.
In assay [2] the target is Muscarinic acetylcholine receptor M3 (Cavia porcellus) (UniProt Q8VH26).

For `c1ccc2c(OCCCCCN3CCCCC3)cccc2c1`, in assay [1], the inhibition result was “Dose-dependent effect” and the pKb came out at 5.91. Besides, in assay [2], the pKb was found to be 5.78.

In assay [2], `c1ccc2c(OCCCCCN3CCCCCC3)cccc2c1` gave a pKb of 6.39.

One may read the pKb as −log10 of the Kb, conventionally taken in molar units.
